Experimental data: PubChem BioAssay AID1531 (NMMLSC, 2009)
The entries are a selection whose mix differs from that of the whole data set. Some salts and complexes are drawn in separate pieces, as the source files them; their charges need not balance. Activity calls are given as the source filed them. Cut-off read from the data, not from the text of the source: active = binding response below about 67% or above about 130%; inconclusive = no clear call, values can overlap the other calls; inactive = in between.

These compounds were tested against Mitogen-activated protein kinase kinase kinase 2 (Homo sapiens) (UniProt Q9Y2U5) (assay: wildtype MEKK2 PB1-MEK5 interaction, increase or decrease – biochemical, multiplex bead flow cytometry, Alexa488-MEK5, primary screen (AID 1531)). Details: Alexa488-MEK5 binding to MEKK2 WT, at 10 µM, actives lie on both sides.

Row | Structure (SMILES) | binding response (% of control)
1 | Cc1nc2ccc3ccccc3c2s1.O=[N+]([O-])c1cc([N+](=O)[O-])c(O)c([N+](=O)[O-])c1 | inactive: 106%
2 | O=[N+]([O-])c1cc([N+](=O)[O-])c(-n2nnc3ccccc32)c([N+](=O)[O-])c1 | inactive: 95%
3 | CN1CCCCC1COC(=O)C1(O)c2ccccc2CCc2ccccc21 (stereo not drawn) | inactive: 95%
4 | COc1ccccc1OP(C)(=O)Nc1c(C)cccc1C (stereo not drawn) | active: 1% [inhibitor]
5 | CP(=O)(Nc1ccc(SC(F)(F)F)cc1)Oc1ccccc1 (stereo not drawn) | inactive: 101%
6 | CCCOc1ccc(NP(C)(=O)Oc2ccc(Cl)cc2)cc1 (stereo not drawn) | inactive: 91%
7 | CCOC(=O)C(CC)C1=NC(C)(C)Cc2ccccc21.O=[N+]([O-])c1cc([N+](=O)[O-])c(O)c([N+](=O)[O-])c1 (stereo not drawn) | inactive: 124%
8 | O=[N+]([O-])c1cc([N+](=O)[O-])c(Nc2nnnn2CCO)c([N+](=O)[O-])c1 | inactive: 104%
9 | CC1=NCCc2c1[nH]c1ccccc21.O=[N+]([O-])c1cc([N+](=O)[O-])c(O)c([N+](=O)[O-])c1 | inactive: 112%
10 | O=C(O)c1cccc(Nc2c([N+](=O)[O-])cc([N+](=O)[O-])cc2[N+](=O)[O-])c1 | inactive: 91%
11 | Cc1ccc(C)c(NP(C)(=O)Oc2ccccc2)c1 (stereo not drawn) | inactive: 103%
12 | CP(=O)(Nc1cccc(Br)c1)Oc1ccccc1 (stereo not drawn) | inactive: 98%
13 | Cc1cc(C)cc(OP(C)(=O)Nc2ccccn2)c1 (stereo not drawn) | inactive: 98%
14 | COc1ccccc1OP(C)(=O)Nc1cccc(Br)c1 (stereo not drawn) | inactive: 95%
15 | CCOC(=O)c1ccc(NP(C)(=O)Oc2cc(C)cc(C)c2)cc1 (stereo not drawn) | inactive: 103%
16 | Cc1cc(C)cc(OP(C)(=O)Nc2ccc(C)cc2C)c1 (stereo not drawn) | inactive: 107%
17 | CCN(CC)CCCOC(=O)C(O)(c1ccccc1)c1ccccc1 | inactive: 85%
18 | COc1ccccc1OP(C)(=O)Nc1ccc(C)cc1 (stereo not drawn) | inactive: 98%
19 | CCOC(=O)c1ccc(NP(C)(=O)Oc2ccccc2)cc1 (stereo not drawn) | inactive: 97%
20 | Cc1cc(C)cc(OP(C)(N)=O)c1 (stereo not drawn) | inactive: 97%
21 | COc1ccccc1OP(C)(=O)Nc1cc(Cl)ccc1C (stereo not drawn) | inactive: 102%

Row | Structure (SMILES) | binding response (% of control)
22 | O=[N+]([O-])c1ccc2c(c1)C=Nc1ccccc1O2 | inactive: 103%
23 | Cc1cccc(C)c1OP(C)(N)=O (stereo not drawn) | inactive: 96%
24 | CC(C)(C)c1ccc(OP(C)(=O)Nc2ccc(SC(F)(F)F)cc2)cc1 (stereo not drawn) | inactive: 101%
25 | CP(=S)(Nn1cnnc1)Oc1ccccc1 (stereo not drawn) | inactive: 100%
26 | CP(=O)(Nc1ccccc1Br)Oc1ccccc1 (stereo not drawn) | inactive: 99%
27 | COc1ccccc1OP(C)(=O)Nc1ccccc1 (stereo not drawn) | inactive: 96%
28 | CCOC(=O)c1ccc(NP(C)(=O)Oc2ccc(OC)cc2)cc1 (stereo not drawn) | inactive: 99%
29 | CCOP(C)(=S)SCC(=O)NC(C)C(=O)O (stereo not drawn) | inactive: 95%
30 | CP(=O)(Nc1ccccn1)Oc1ccc(Cl)cc1 (stereo not drawn) | inactive: 100%
31 | CP(=O)(Oc1ccccc1)OC(c1ccccc1)C(F)(F)F (stereo not drawn) | inactive: 101%
32 | CP(=O)(Nc1ccc(SC(F)(F)F)cc1)Oc1ccc(Cl)cc1 (stereo not drawn) | inactive: 92%
33 | Cc1cccc(C)c1OP(C)(=O)Nc1ccc(SC(F)(F)F)cc1 (stereo not drawn) | inactive: 105%
34 | Cc1cc(C)cc(OP(C)(=O)Nc2ccc(SC(F)(F)F)cc2)c1 (stereo not drawn) | inactive: 101%
35 | CCc1ccc(OP(C)(=O)N2CCN(c3ccc([N+](=O)[O-])cc3)CC2)cc1 (stereo not drawn) | inactive: 90%
36 | CP(=O)(NC(=O)Nc1ccccc1)Oc1ccccc1 (stereo not drawn) | inactive: 95%
37 | CC(C)(C)c1ccc(OP(C)(=O)O)cc1 | inactive: 108%
38 | COc1ccccc1OP(C)(=O)Nc1ccccc1Br (stereo not drawn) | inactive: 92%
39 | CP(=O)(Nc1ccc(Cl)cc1)Oc1ccc(F)cc1 (stereo not drawn) | inactive: 116%
40 | CN(C)C(=O)c1c([N+](=O)[O-])cc([N+](=O)[O-])cc1[N+](=O)[O-] | inactive: 96%
41 | COc1ccc(OP(C)(=O)Nc2ccc(Br)cc2)cc1 (stereo not drawn) | inactive: 96%
42 | CCN(CC)CC(O)COC(=O)C(O)(c1ccccc1)C1CCCCC1 (stereo not drawn) | inactive: 104%

Row | Structure (SMILES) | binding response (% of control)
43 | O=C(OCCCN1CCCC1)C(O)(c1ccccc1)C1CCCCC1 (stereo not drawn) | inactive: 99%
44 | COc1ccccc1OP(C)(=O)Nc1c(C)n(C)n(-c2ccccc2)c1=O (stereo not drawn) | inactive: 107%
45 | CCc1ccc(OP(C)(=O)Nc2cccnc2)cc1 (stereo not drawn) | inactive: 89%
46 | CP(=O)(Oc1ccccc1)N1CCOC1=O (stereo not drawn) | inactive: 100%
47 | CCOC(=O)c1ccc(NP(C)(=O)Oc2ccc(Cl)cc2)cc1 (stereo not drawn) | inactive: 100%
48 | CP(=O)(OC12CC3CC(CC(C3)C1)C2)OC12CC3CC(CC(C3)C1)C2 | inactive: 99%
49 | Cc1nc2ccc3ccccc3c2o1.O=[N+]([O-])c1cc([N+](=O)[O-])c(O)c([N+](=O)[O-])c1 | inactive: 93%
50 | CP(=O)(OCCOc1ccccc1)OCCOc1ccccc1 | inactive: 106%
51 | CP(=O)(Nc1ccc(Cl)cc1Cl)Oc1ccccc1 (stereo not drawn) | inactive: 94%
52 | Cc1cc(C)cc(OP(C)(=O)Nc2cccc(C(F)(F)F)c2)c1 (stereo not drawn) | inactive: 90%
53 | COc1ccccc1OP(C)(=O)Nc1ccc(C)c(C)c1 (stereo not drawn) | inactive: 95%
54 | COc1ccc(OP(C)(=O)Nc2ccccc2Br)cc1 (stereo not drawn) | inactive: 93%
55 | O=[N+]([O-])c1cc([N+](=O)[O-])c(Nc2ccccn2)c([N+](=O)[O-])c1 | inactive: 89%
56 | Cc1c(NP(C)(=O)Oc2ccc(C(C)C)cc2)c(=O)n(-c2ccccc2)n1C (stereo not drawn) | inactive: 111%
57 | COc1ccccc1OP(C)(=O)Nc1ccc(C)cc1C (stereo not drawn) | inactive: 111%
58 | CP(=O)(Nc1ccccn1)Oc1ccccc1 (stereo not drawn) | inactive: 107%
59 | CCc1ccc(OP(C)(=O)O)cc1 | inactive: 107%
60 | COc1ccccc1OP(C)(=O)Nc1ccc(Br)cc1 (stereo not drawn) | inactive: 94%
61 | COc1ccc(OP(C)(=O)Nc2ccccn2)cc1 (stereo not drawn) | inactive: 109%
62 | CN(C)CCOC(=O)C(O)(c1ccccc1)C1CCCC1 (stereo not drawn) | inactive: 105%
63 | O=C(OC1CN2CCC1CC2)c1ccc([N+](=O)[O-])cc1 (stereo not drawn) | inactive: 98%

Row | Structure (SMILES) | binding response (% of control)
64 | O=C(OCCN1CCN(CCOCc2ccccc2)CC1)C(O)(c1ccccc1)c1ccccc1 | inactive: 98%
65 | COc1ccc2c(c1O)-c1c(O)c(OC)cc3c1[C@H](C2)[N+](C)(C)CC3.O=[N+]([O-])c1cc([N+](=O)[O-])c([O-])c([N+](=O)[O-])c1[O-] | inactive: 97%
66 | CP(=O)(Nc1ccccc1F)Oc1ccccc1 (stereo not drawn) | inactive: 104%
67 | CC(C)c1ccc(OP(C)(=O)Nc2ccc(SC(F)(F)F)cc2)cc1 (stereo not drawn) | inactive: 97%
68 | CCN(CC)CCCOC(=O)C(O)(c1ccccc1)C1CCCCC1 (stereo not drawn) | inactive: 107%
69 | CP(=O)(Nc1ccccc1)Oc1ccc(F)cc1 (stereo not drawn) | inactive: 99%
70 | O=[N+]([O-])c1cc([N+](=O)[O-])c(OC2CCCCC2O)c([N+](=O)[O-])c1 (stereo not drawn) | inactive: 105%
71 | CCCCCOc1ccc(NP(C)(=O)Oc2ccc(Cl)cc2Cl)cc1 (stereo not drawn) | inactive: 91%
72 | CCOC(=O)c1ccc(NP(C)(=O)Oc2ccc(F)cc2)cc1 (stereo not drawn) | inactive: 96%
73 | COc1ccc(OP(C)(=O)Nc2ccc(SC(F)(F)F)cc2)cc1 (stereo not drawn) | inactive: 82%
74 | O=[N+]([O-])c1ccc(OP2(=O)COCCO2)cc1 (stereo not drawn) | inactive: 103%
75 | O=[N+]([O-])c1cc([N+](=O)[O-])c(NCC2CCS(=O)(=O)C2)c([N+](=O)[O-])c1 (stereo not drawn) | inactive: 98%
76 | Cc1cc(-c2cccc3ccccc23)c(C)cn1.O=[N+]([O-])c1cc([N+](=O)[O-])c(O)c([N+](=O)[O-])c1 | inactive: 97%
77 | COc1ccc(OP(C)(=O)Nc2cccc(Br)c2)cc1 (stereo not drawn) | inactive: 100%
78 | CN(C)CCOC(=O)C(O)(c1ccccc1)C1CCCCC1 (stereo not drawn) | inactive: 99%
79 | COc1ccc(NP(C)(=O)Oc2ccccc2OC)cc1 (stereo not drawn) | inactive: 101%
80 | CP(=O)(Nc1ccc2c(c1)OCCO2)Oc1ccccc1 (stereo not drawn) | inactive: 107%
81 | Cc1ccccc1NP(C)(=O)Nc1ccccc1C | inactive: 103%
82 | CP(=O)(Nc1ccc(SC(F)(F)F)cc1)Oc1ccc(F)cc1 (stereo not drawn) | inactive: 91%
83 | CCOP(C)(=S)SCC(=O)NC(C)(CC)C(=O)O (stereo not drawn) | inactive: 102%
